Kd and IC50 data for three substances are collected here from PMC9468336, “The choanoflagellate pore-forming lectin SaroL-1 punches holes in cancer cells by targeting the tumor-related glycosphingolipid Gb3” (Communications Biology, 2022).

Protein sequences, listed by entry. Tags and fused reporters are not part of them. Residues count along the entry.
UniProt F2UID9, 1-329: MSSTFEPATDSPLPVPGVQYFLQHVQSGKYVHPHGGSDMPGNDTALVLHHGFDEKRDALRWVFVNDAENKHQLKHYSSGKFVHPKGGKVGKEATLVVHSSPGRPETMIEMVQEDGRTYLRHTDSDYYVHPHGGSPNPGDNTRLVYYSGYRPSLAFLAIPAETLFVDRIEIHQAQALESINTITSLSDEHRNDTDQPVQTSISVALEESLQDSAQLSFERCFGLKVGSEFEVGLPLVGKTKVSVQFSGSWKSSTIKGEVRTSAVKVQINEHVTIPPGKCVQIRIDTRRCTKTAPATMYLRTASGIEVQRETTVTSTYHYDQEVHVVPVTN

Like-named read-outs stand apart in the source and are kept apart here.

Assay [1] concerns the target T1, SaroL-1 (Salpingoeca rosetta, UniProt F2UID9).
T1 construct: gene PTSG_08235; monomeric in solution
The experiment in a line: Isothermal titration calorimetry (MicroCal iTC200) at 25 °C in 20 mM Tris/HCl pH 7.5, 100 mM NaCl, ligand titrated into SaroL-1, one-site model with stoichiometry N fixed to 3. Type of assay: binding. As for the experimental part: Isothermal Titration Calorimetry (ITC)
ITC experiments were performed with MicroCaliTC200 (Malvern Panalytical). Experiments were carried out at 25 °C ± 0.1 °C. SaroL-1 and ligands samples were prepared in Buffer A. The ITC cell contained SaroL-1 in a concentration range from 0.05 mM to 0.16 mM. The syringe contained the ligand solutions in a concentration from 10 to 50 mM. 2 μL of ligands solutions were injected into the sample cell at intervals of 120 s while stirring at 750 rpm. Integrated heat effects were analysed by nonlinear regression using one site binding model (MicroCal PEAQ-ITC Analysis software). The experimental data were fitted to a theoretical curve, which gave the dissociation constant (Kd) and the enthalpy of binding (∆H).

Assay [2] has as its target T1, SaroL-1. The experiment in a line: Inhibition of SaroL-1 (217 nM) induced hemolysis of rabbit erythrocytes after 1 h pre-incubation of lectin with sugar at RT, then 1-2 h at 37 °C, absorbance of supernatant at 540 nm. Particulars: n = 2. In kind it is cell-based. On the procedure: Hemolytic assay (HA) and inhibition of hemolytic activity (IHA)
Both HA and IHA assays were performed in U-shaped 96-well microtiter plates. In both cases, a control negative experiment was performed with Buffer A added to erythrocyte solution (2% final concentration), and the resulting value was subtracted from all data.
IHA was performed in U-shaped 96-well microtiter plates. […] 4% rabbit erythrocytes were added to the mixture in a 1:1 ratio and incubated for 1–2 h at 37 °C. The samples were centrifuged, 2600 × g for 15 min at RT, and the absorbance of the supernatant was measured at 540 nm by a Tecan reader.

One may read the Kd as a measure of binding affinity in units of concentration. “α-D-galactopyranosyl-(1-4)-D-galactose, terminal disaccharide of globoside Gb3 [αGal1-4Gal]”: at SaroL-1 [1] (read-out: Kd), the Kd came out at 390 µM. For βGal1-4Glc (lactose), at SaroL-1 [1], the Kd came out at 6660 µM. For orientation: IC50 means the concentration needed to halve the response being measured. Regarding αGal1-6Glc (melibiose), on SaroL-1 [1] (read-out: Kd), the Kd was found to be 1200 µM. The same substance registered a half-inhibitory concentration (IC50) at SaroL-1 [2] of 1500 µM.
